Consider 1 compound from patent US12139480B2, “5-thiazolecarboxamide kinase inhibitor and uses thereof” (iOmx Therapeutics AG, priority 2018, dated 2024).

The chains behind the UniProt entries cited, without tags or fusion partners. Where a name states a change or a piece, a line headed by the entry shows the natural chain unless it says otherwise. Residues count along the entry.
UniProt P29323, 19-1055: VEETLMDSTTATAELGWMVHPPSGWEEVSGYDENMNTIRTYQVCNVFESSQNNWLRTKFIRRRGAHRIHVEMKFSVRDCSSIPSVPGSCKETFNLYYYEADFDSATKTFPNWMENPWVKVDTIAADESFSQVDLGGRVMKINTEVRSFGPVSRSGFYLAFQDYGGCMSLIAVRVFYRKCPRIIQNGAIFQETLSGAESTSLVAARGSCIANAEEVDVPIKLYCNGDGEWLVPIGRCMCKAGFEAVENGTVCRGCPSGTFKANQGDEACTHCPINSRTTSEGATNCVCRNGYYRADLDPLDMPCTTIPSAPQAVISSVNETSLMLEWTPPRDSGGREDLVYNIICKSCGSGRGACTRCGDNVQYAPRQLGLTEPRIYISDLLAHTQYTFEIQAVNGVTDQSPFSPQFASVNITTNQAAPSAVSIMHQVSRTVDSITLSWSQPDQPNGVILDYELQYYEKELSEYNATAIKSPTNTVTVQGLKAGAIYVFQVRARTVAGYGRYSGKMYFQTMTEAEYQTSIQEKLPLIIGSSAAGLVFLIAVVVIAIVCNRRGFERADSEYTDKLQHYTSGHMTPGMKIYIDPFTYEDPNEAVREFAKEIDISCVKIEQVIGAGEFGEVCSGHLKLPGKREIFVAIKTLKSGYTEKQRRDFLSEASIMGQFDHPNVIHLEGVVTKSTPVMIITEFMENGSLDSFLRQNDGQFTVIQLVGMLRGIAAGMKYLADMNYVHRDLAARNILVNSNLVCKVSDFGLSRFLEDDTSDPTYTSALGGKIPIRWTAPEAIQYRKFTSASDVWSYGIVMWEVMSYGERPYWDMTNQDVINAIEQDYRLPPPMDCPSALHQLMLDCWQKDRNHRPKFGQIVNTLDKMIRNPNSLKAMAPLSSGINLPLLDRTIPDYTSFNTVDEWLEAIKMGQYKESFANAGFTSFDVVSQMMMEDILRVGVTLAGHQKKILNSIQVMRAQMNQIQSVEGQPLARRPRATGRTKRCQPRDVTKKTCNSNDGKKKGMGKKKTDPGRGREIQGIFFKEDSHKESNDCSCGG
UniProt P16234, 24-1089: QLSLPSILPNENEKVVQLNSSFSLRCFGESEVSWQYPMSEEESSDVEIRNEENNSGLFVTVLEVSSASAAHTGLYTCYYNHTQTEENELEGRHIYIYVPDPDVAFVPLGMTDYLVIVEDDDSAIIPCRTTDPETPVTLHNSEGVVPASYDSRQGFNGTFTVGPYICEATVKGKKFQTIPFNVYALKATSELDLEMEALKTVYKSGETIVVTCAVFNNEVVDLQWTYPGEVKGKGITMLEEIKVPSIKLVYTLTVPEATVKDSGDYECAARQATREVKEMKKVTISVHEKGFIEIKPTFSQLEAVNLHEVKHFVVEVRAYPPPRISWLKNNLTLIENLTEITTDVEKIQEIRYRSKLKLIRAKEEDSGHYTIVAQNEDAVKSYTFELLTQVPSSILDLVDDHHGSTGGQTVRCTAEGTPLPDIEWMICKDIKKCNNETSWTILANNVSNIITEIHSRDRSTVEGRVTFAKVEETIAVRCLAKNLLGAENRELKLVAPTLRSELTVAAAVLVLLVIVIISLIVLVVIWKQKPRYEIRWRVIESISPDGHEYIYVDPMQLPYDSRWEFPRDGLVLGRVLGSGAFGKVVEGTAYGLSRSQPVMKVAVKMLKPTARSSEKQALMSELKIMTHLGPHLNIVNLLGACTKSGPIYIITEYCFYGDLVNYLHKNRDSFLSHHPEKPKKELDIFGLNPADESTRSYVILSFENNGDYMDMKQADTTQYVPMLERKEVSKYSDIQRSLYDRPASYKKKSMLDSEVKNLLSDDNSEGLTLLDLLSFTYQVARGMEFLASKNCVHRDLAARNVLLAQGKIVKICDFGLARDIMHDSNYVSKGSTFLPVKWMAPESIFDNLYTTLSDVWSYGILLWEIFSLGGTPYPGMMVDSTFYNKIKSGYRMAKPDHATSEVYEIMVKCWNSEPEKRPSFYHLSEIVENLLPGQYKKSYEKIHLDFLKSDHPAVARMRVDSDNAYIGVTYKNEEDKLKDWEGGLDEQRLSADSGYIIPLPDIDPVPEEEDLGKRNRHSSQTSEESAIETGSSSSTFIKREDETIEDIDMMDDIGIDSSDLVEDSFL
UniProt P36894, 24-532: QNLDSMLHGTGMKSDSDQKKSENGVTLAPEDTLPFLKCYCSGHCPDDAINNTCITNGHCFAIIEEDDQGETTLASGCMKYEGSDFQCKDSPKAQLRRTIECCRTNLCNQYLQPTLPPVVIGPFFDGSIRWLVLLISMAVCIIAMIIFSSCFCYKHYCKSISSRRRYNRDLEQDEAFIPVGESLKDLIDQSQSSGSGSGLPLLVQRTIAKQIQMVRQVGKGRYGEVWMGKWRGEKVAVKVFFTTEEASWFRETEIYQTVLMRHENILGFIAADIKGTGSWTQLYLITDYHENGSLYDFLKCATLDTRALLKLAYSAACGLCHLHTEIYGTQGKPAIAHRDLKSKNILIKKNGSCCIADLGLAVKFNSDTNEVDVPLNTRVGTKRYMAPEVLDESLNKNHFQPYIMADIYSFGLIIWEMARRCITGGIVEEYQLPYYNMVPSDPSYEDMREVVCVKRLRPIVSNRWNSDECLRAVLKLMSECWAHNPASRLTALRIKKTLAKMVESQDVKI
UniProt Q16584: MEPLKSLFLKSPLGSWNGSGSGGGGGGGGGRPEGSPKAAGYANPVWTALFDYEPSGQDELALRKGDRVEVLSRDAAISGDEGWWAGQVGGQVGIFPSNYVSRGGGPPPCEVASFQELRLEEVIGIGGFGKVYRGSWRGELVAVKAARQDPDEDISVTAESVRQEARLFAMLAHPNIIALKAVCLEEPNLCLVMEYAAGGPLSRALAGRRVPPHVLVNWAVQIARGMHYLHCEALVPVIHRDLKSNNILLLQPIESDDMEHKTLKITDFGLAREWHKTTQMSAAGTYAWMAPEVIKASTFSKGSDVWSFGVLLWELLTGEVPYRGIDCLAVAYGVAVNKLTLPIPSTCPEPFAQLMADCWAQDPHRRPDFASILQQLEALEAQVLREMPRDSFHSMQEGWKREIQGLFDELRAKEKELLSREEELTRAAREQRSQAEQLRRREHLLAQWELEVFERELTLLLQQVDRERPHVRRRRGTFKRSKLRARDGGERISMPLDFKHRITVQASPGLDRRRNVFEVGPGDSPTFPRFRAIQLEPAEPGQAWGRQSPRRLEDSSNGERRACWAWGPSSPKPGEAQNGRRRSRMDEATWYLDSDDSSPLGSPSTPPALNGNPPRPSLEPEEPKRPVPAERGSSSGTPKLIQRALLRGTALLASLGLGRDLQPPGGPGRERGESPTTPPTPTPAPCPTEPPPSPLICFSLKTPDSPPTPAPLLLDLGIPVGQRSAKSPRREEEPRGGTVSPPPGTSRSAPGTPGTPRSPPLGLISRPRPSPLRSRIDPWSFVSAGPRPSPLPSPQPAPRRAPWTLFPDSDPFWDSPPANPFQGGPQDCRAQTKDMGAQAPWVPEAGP
UniProt P07949, 29-1114: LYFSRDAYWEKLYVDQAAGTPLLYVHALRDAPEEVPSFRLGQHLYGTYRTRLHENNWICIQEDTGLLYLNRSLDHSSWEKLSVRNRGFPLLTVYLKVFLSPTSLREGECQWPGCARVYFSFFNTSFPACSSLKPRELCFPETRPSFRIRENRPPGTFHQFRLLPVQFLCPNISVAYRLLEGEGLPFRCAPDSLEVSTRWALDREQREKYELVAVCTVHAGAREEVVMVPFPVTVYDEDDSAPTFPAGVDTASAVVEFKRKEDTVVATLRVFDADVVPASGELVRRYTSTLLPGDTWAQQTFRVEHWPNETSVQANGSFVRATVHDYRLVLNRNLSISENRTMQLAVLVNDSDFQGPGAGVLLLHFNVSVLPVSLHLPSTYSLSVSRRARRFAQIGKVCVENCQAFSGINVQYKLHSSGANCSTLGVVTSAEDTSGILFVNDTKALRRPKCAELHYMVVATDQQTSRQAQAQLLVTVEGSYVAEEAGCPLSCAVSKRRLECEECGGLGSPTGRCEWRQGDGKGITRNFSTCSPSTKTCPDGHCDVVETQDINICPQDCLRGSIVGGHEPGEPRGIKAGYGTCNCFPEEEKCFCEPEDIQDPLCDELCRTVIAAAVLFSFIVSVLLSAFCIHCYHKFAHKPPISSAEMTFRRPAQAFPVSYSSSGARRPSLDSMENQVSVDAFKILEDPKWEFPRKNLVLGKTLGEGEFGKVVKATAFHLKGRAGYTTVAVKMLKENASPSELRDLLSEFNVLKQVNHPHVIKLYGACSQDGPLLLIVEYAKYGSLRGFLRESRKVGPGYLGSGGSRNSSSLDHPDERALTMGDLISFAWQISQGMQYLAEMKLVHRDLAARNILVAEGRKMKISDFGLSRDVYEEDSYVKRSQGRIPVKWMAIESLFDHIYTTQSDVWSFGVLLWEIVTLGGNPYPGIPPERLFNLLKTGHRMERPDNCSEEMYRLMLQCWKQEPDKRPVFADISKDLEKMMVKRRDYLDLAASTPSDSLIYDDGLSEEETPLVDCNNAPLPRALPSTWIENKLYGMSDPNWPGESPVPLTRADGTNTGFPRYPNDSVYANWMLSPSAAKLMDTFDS
UniProt P36888, 27-993: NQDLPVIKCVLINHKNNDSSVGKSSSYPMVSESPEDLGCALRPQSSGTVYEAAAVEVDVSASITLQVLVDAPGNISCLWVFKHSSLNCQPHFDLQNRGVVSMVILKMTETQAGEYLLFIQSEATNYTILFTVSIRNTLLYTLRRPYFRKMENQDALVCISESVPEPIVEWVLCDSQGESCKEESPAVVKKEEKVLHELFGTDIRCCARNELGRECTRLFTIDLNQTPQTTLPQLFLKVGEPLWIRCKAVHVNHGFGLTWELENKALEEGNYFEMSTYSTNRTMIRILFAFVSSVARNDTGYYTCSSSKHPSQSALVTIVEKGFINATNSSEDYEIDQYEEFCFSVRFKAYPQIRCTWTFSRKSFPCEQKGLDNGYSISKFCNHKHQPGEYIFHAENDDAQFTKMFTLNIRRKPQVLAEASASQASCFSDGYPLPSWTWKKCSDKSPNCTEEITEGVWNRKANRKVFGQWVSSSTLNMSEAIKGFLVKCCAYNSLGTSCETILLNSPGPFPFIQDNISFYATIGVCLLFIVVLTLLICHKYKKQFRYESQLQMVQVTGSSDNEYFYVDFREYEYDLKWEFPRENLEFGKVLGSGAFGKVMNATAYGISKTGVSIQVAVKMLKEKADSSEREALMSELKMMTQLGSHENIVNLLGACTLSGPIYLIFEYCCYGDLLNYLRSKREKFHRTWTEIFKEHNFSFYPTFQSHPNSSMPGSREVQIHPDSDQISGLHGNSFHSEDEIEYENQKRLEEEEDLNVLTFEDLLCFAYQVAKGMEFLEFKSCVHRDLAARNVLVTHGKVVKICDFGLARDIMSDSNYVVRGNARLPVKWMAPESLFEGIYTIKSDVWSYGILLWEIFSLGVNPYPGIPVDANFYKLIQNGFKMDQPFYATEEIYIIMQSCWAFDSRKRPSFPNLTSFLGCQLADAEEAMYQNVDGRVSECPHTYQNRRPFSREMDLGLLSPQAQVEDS
UniProt Q13705, 19-512: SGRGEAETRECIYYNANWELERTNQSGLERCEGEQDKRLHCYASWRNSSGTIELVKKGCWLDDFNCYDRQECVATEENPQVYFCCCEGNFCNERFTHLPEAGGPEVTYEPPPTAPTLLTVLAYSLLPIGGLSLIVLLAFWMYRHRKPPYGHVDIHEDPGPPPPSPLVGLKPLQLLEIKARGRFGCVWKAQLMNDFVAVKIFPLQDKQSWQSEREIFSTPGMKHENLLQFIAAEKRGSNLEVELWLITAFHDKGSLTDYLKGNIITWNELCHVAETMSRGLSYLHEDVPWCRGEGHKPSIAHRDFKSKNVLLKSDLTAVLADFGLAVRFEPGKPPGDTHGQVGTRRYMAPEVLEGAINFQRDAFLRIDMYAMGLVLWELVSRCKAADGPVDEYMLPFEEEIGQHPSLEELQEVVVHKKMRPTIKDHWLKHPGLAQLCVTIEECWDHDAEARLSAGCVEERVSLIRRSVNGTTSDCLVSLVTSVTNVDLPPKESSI

In one test the target is T1, EPHB2 (Homo sapiens, UniProt P29323).
T1 construct: purchased ProQinase
The experiment in a line: single-point (1 uM) inhibition assay (ProQinase Kinase Profiler). The class given is biochemical. The settings on record: read-out: Residual activity (%) at 1 uM.

A further test has as its target T2, MAP4K5 (Homo sapiens, UniProt Q9Y4K4).
T2 construct: purchased ProQinase
The test is described as above. The test is classed as biochemical. The following applies: read-out: Residual activity (%) at 1 uM.

For the next test, the target named is T3, PDGFR-alpha (Homo sapiens, UniProt P16234).
T3 construct: purchased ProQinase
The description is as above. The test is classed as biochemical. The settings on record: read-out: Residual activity (%) at 1 uM.

In the next test the target is T4, BMPR1A (Homo sapiens, UniProt P36894).
T4 construct: purchased ProQinase, Freiburg, Germany (Kinase Profiler panel)
The description is as above. The settings on record: read-out: Residual activity (%) at 1 uM. The test is classed as biochemical.

The target of another test is T5, EPHA6 (Homo sapiens, UniProt Q9UF33).
T5 sequence (Q9UF33 23-1036): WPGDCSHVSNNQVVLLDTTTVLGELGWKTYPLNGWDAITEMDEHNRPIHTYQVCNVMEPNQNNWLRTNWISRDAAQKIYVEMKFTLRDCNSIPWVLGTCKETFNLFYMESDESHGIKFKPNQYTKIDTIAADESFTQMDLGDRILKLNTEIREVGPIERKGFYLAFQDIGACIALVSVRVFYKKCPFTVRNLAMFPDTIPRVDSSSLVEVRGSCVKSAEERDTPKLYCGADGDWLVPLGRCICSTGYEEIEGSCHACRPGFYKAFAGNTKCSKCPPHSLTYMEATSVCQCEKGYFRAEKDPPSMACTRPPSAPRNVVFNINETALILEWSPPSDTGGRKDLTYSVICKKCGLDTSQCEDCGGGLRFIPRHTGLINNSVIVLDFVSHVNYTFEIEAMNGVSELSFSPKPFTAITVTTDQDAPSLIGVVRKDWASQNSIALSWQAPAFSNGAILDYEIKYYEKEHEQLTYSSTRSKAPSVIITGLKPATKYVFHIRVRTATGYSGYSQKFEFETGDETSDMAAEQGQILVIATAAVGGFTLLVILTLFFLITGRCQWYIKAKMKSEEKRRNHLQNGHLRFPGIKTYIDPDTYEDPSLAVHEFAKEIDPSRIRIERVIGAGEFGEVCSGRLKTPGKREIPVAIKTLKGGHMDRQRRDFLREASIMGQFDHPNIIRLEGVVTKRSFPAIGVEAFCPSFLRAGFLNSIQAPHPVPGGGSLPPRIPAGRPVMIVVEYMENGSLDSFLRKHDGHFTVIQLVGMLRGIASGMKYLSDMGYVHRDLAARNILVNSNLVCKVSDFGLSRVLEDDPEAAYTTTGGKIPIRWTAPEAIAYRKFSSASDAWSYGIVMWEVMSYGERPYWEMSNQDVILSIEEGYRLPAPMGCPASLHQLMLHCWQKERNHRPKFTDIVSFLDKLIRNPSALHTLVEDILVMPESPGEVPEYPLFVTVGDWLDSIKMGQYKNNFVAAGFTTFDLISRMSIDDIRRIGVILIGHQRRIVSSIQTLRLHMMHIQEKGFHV
The description is as above. The class given is biochemical. The settings on record: read-out: Residual activity (%) at 1 uM.

For the next test, the target named is ERBB2 (Homo sapiens, UniProt P04626). Described as above. The class given is biochemical. The settings on record: read-out: Residual activity (%) at 1 uM.
The next test has as its target FGF-R2 (Homo sapiens, UniProt P21802). The test is described as above. The class given is biochemical. The following applies: read-out: Residual activity (%) at 1 uM.
A further test deals with MAP3K11 (Homo sapiens, UniProt Q16584). The description is as above. The test is classed as biochemical. The settings on record: read-out: Residual activity (%) at 1 uM.
A further test deals with T6, RET (Homo sapiens, UniProt P07949).
T6 construct: purchased ProQinase, Freiburg, Germany (Kinase Profiler panel)
Described as above. The class given is biochemical.

The next test has as its target T7, FLT3 (Homo sapiens, UniProt P36888).
T7 construct: purchased ProQinase
The test is described as above. The class given is biochemical. The following applies: read-out: Residual activity (%) at 1 uM.

For another test, the target named is EPH-A7 (Homo sapiens, UniProt Q15375). Described as above. The test is classed as biochemical. The settings on record: read-out: Residual activity (%) at 1 uM.
For another test, the target named is ACV-R2B (Homo sapiens, UniProt Q13705). The experiment in a line: biochemical. The settings on record: read-out: Residual activity (%) at 1 uM.

`Cc1nc(Nc2ncc(C(=O)Nc3c(Cl)ccnc3C)s2)cc(N2CCN(CCO)CC2)n1` [Compound B3, N-(4-chloro-2-methylpyridin-3-yl)-2-((6-(4-(2-hydroxyethyl)piperazin-1-yl)-2-methylpyrimidin-4-yl)amino)thiazole-5-carboxamide]: the remaining activity at 1 µM on EPHB2 came to 15%; on MAP4K5, 28%; at PDGFR-alpha, 18%; on BMPR1A, 83%; at EPHA6, 86%; on ERBB2 it was 84%. Besides, the remaining activity at 1 µM at FGF-R2 stood at 74%; at MAP3K11, 61%; at FLT3 it was 32%; on EPH-A7, 88%; on ACV-R2B, 57%. In addition, the “Residual activity (%) at 1 uM” value at RET worked out at 98%.
